# Bioassay records (PubChem)
# A549 tox-1 = kills or reduces viability of A549 cells in Nrf2 counter-screen. A549 ARE-Fluc cells, CellTiter-Fluor viability, 18-24 h. Potency, µM (top dose mostly 46 µM), inactives show at the top dose activity change, negative = cytotoxicity, usual class: inhibitors. 390,000 tested, 0.16% active; further: potency means the concentration at half of the fitted maximal effect; on the % scale 0 is the no-effect control and ±100 the full control effect
#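 A549 ARE-Fluc cells in 5% FBS OPTI-MEM, 5000 cells/well, rested 2 h then exposed to compounds in concentration-response for 18-24 h at 37 °C. Viability by CellTiter-Fluor fluorescence (Ex 405/Em 525) after 30 min; luciferase luminescence (BugLite, 15 min, RT) read afterwards.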
# miR-21 reporter = raises the signal of a miR-21 reporter; AID 2288; 340,000 tested, under 10 active; Potency, µM (doses to about 38.3 µM), inactives show at the top dose reporter change, positive = more light; HeLa miR-21 FLuc reporter, luciferase, 48 h; active = well fitted rising curve with a large enough effect; inconclusive = small, poorly fitted or top-dose-only effect; inactive = no such curve, though single readings can be large or run the other way;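 note: % of control where 0% means no effect; miR-21 action dims this reporter so a rising signal means less miR-21 action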
#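 HeLa cells stably expressing CMV-driven firefly luciferase with a downstream miR-21 binding sequence, endogenously expressing miR-21, were treated with titrations (up to about 40uM final) for 48 hours at 37 degree Celsius. Luciferase luminescence was read after lysis.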
# Mito fusion yeast = blocks mitochondrial division or promotes mitochondrial fusion | S. cerevisiae fusion-defective mutant growth rescue, CellTiterGlo 48 h | Potency, µM (doses to about 46.1 µM), for the others: at the top dose growth rescue (activation), hits mostly activators | 320,000 tested, 0.23% active | AID 485298; further: potency means the concentration at half of the fitted maximal effect; % of control where 0% means no effect; nearly all actives have a fitted effect of over 45% in size
#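 Yeast fusion mutant, YPEG (non-fermentable carbon), compound, 48 h at 37C non-permissive; CellTiterGlo added, 10 min RT, luminescence read. Rescued growth = division inhibition.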
# Nrf2 activator = activates Nrf2 signaling; AREc32 ARE-luciferase reporter (MCF7-derived line), luminescence, 24 h; Potency, µM (series often up to 46.1 µM), inactives show at the highest dose activation, actives largely listed as activators; 410,000 tested, 0.31% active; AID 624171; further: potency means the concentration at half of the fitted maximal effect; % of control where 0% means no effect; nearly all actives have a fitted effect of over 65% in size
#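 AREc32 cells carrying an ARE-driven firefly luciferase reporter were seeded at 1000 cells/well in OPTI-MEM with 5% FBS, then exposed to compound for 24 hr at 37 deg C. Luminescence was read with Steady-Glo after 30 min at RT.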
# Glioma ERSR ind = inducers of ER stress response in human glioma cells; U87-MG GRP78 promoter luciferase reporter, 16 h; Potency, µM, for the others: at the highest dose activation, most hits filed as activators; 420,000 tested, 0.02% active; further: potency means the concentration at half of the fitted maximal effect; series mostly up to about 76 µM; % of control where 0% means no effect; nearly all actives have a fitted effect of over 35% in size
#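 Stably transfected U87-MG human glioma cells carrying a GRP78-based luminescent sensor were seeded at 1000 cells/well, pin-dosed with compounds and incubated 16 h. Luciferase reagent was then added, and end-point luminescence was read after 10 min at room temperature.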
# Nrf2 block = inhibitors of Nrf2 signaling. Potency, µM (highest dose often 46 µM), for the others: top-dose activity change, negative = inhibition, actives largely listed as inhibitors. A549 ARE-Fluc reporter, luciferase luminescence, 18-24 h. AID 504444. 360,000 tested, 2.1% active; further: potency means the concentration at half of the fitted maximal effect; on the % scale 0 is the no-effect control and ±100 the full control effect; nearly all actives have a fitted effect of over 60% in size
#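 Nrf2 activity is the BugLite luminescence, read 15 min after reagent at room temperature, following CellTiter-Fluor cytotoxicity readout (30 min, 37C). Compound titrations were applied for 18-24 h to 5000 A549 ARE_Fluc cells/well in 5% FBS OPTI-MEM.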
# FLuc counter 3 = blocks purified firefly luciferase in Nrf2 counterscreen; shares compounds with Nrf2 block; purified firefly luciferase, luminescence inhibition; Potency, µM (titrated, usually from 57.5 µM), for inactives: at the highest dose activity change, negative = inhibition, hits mostly inhibitors; 1,400 tested, 4% active; AID 720522; further: potency means the concentration at half of the fitted maximal effect; on the % scale 0 is the no-effect control and ±100 the full control effect; nearly all actives have a fitted effect of over 65% in size
# A549 tox-2 = counter-screen for Nrf2 inhibitors: cytotoxicity in A549 ARE cells; AID 720523; Potency, µM (series often up to 46.1 µM), inactives show at the highest dose activity change, negative = cytotoxicity, hits mostly inhibitors; A549 ARE-Fluc cells, cytotoxicity counterscreen; shares compounds with Nrf2 block; 1,400 tested, 2% active;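 further: potency means the concentration at half of the fitted maximal effect; cells exposed to compounds for 18 to 24 hours; on the % scale 0 is the no-effect control and ±100 the full control effect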
# Nrf2 ARE inh = reduces Nrf2 ARE reporter signal in A549 cells | shares compounds with Nrf2 block | A549 ARE-firefly luciferase reporter, luminescence | Potency, µM (highest dose often 46.1 µM), for inactives: at the highest dose activity change, negative = inhibition, actives largely listed as inhibitors | 1,400 tested, 74% active; further: potency means the concentration at half of the fitted maximal effect; on the % scale 0 is the no-effect control and ±100 the full control effect; nearly all actives have a fitted effect of over 65% in size
# * marks the source's active call; other numbers are inactive results; ? = inconclusive; . = not tested or not shown; [ ] = remark or other dose. An excerpt weighted towards active compounds, which were near 2.3% of everything screened. Unless noted, the call rests on the fitted dose curve; in most records, active means well fitted curve in the direction sought with a large enough effect; inconclusive means small, poorly fitted or top-dose-only effect, or another doubt; inactive means no such curve, though single readings can be large; an effect the other way counts as inactive or inconclusive.
# Each structure is followed by: A549 tox-1, miR-21 reporter, Mito fusion yeast, Nrf2 activator, Glioma ERSR ind, Nrf2 block, FLuc counter 3, A549 tox-2, Nrf2 ARE inh
> CCc1ccc(CN(C)CC(=O)Nc2ccccc2[N+](=O)[O-])cc1
  ?, -13%, 15%, 0%[9.22 µM], -4%, 9%, ., ., .
> Cc1ccc(N2CCN(S(=O)(=O)N3CCCCC3)CC2)c(C)c1
  -15%, -3%, 16%, 0%, -1%, 6.5µM*, 3%, 9%, 9%
> Cc1cc(C)c(S(=O)(=O)N2CCN(S(=O)(=O)N3CCCCCC3)CC2)c(C)c1
  3%, 1%, -2%, 0%, -3%, 25%, ., ., .
> Cc1ccc(C(=O)SC2=NCCS2)cc1
  -7%, -4%, 2%, 0%, -2%, -2%, ., ., .
> CCOc1cc(/C=N\NC(=O)c2ccc(NC(=O)C(C)(C)C)cc2)ccc1OC(=O)c1cccc(C)c1
  -3%, 10%, 2%, -1%, 1%, 5.2µM*, 0%, -3%, 15µM*
> COc1cc2c(C(=O)c3ccccc3)c3c4c(cc(OC)c(OC)c4c2cc1OC)CCN3C
  ., ., ., ., -3%, ., ., ., .
> Cc1csc(=Nc2ccccc2)n1Cc1ccco1
  7%, 1%, 5%, 14%, -1%, -16%, ., ., .
> O=C(O)CCSc1ncnc2sc(-c3ccccc3)cc12
  -14%, 29%, 19%, -2%, -14%, 2.1µM*, 9.5µM*, -3%, 6.5µM*
> O=C(Cn1cc(C(=O)COc2ccccc2)c2ccccc21)NCc1ccco1
  -4%, -12%, 0%, 17%, -1%, -4%, ., ., .
> CN(C)S(=O)(=O)N1CCC(Oc2ccc(C(=O)NC3Cc4ccccc4C3)cc2)CC1
  -9%, -14%, -16%, 9%, -2%, ?, ., ., .
> CN(C)S(=O)(=O)N1CCC(Oc2cccc(C(=O)NC3CCCCCC3)c2)CC1
  -16%, 27%, 1%, 0%, -4%, 2.6µM*, 2%, ?, 0.073µM*
> O=C(NCc1ccccc1Cl)C1CC(=O)N(Cc2ccccc2)C1 (configuration not stated)
  2%, -3%, -6%, 0%, 1%, 2%, ., ., .
> N#CCc1ccc(NC(=O)c2ccc(CN3CCc4ccccc4C3)cc2)cc1
  0%, 13%, -2%, 4%, 1%, 5.2µM*, -15%, 7%, ?
> O=C(Nc1ccc(S(=O)(=O)N2CCCC2)cc1)c1ccc(CN2CCc3ccccc3C2)cc1
  -7%, ?, 15%, 5%, -4%, 1.5µM*, 0%, -16%, 1.6µM*
> CCCNC(=O)c1ccc(CN2CCc3ccccc3C2)cc1
  4%, -6%, 0%, 0%, 0%, ., ., ., .
> O=C(Nc1ccc(S(=O)(=O)N2CCOCC2)cc1)c1ccc(CN2CCc3ccccc3C2)cc1
  ?, ?, 8%, 2%, -7%, 0.82µM*, -1%, 2%, 1.6µM*
> O=C(Nc1ccccc1)c1ccc(S(=O)(=O)N2CCOCC2)cc1
  7%, -12%, 2%, 0%, -5%, ?, ., ., .
> COC(=O)c1c(C)oc2ccc(N(C(=O)c3ccncc3)S(=O)(=O)c3c(C)cc(C)cc3C)cc12
  -3%, 13%, ., 0%, 0%, 4.1µM*, 1%, -8%, 5.8µM*
> CCOC(=O)c1c(C)oc2ccc(N(C(=O)c3ccncc3)S(=O)(=O)c3ccc(F)cc3C)cc12
  5%, 16%, ., 0%, -3%, ?, ., ., .
> CCc1ccc(S(=O)(=O)N(C(=O)Oc2ccccc2)c2ccc3oc(C)c(C(=O)OC)c3c2)cc1
  -10%, 14%, ., -1%, -3%, 3.7µM*, 3%, -7%, 6.5µM*

# Next part:
SMILES | A549 tox-1 | miR-21 reporter | Mito fusion yeast | Nrf2 activator | Glioma ERSR ind | Nrf2 block | FLuc counter 3 | A549 tox-2 | Nrf2 ARE inh
CC(=O)c1c(C)oc2ccc(N(C(=O)c3ccncc3)S(=O)(=O)c3ccc(F)cc3C)cc12 | -8% | ? | . | 0% | -4% | ? | . | . | .
COC(=O)c1c(C)oc2ccc(N(C(=O)c3ccncc3)S(=O)(=O)c3cc(C)c(C)cc3C)cc12 | -15% | 24% | . | -1% | 1% | 9.2µM* | -10% | -21% | 10µM*
COC(=O)c1c(C)oc2ccc(N(C(=O)Oc3ccccc3)S(=O)(=O)c3ccc(Cl)c([N+](=O)[O-])c3)cc12 | -16% | 1% | -1% | 0% | -3% | -12% | . | . | .
O=C(Nc1ccccc1N1CCN(C(=O)c2ccccc2)CC1)c1ccc(Br)o1 | -20% | -1% | 5% | 0% | -6% | ? | . | . | .
O=C(NC1CCCCCCC1)C1CCCN(S(=O)(=O)c2cnc[nH]2)C1 (configuration not stated) | 0% | -10% | 0% | 0% | -3% | 0% | . | . | .
Cc1ccc(NC(=O)CSc2nn(-c3ccccc3)c(=S)s2)cc1S(=O)(=O)N(C)C | ? | 27% | 0% | 2% | -3% | 5.8µM* | -15% | -17% | 7.3µM*
Cc1cccc(NC(=O)CCS(=O)(=O)c2ccccc2)n1 | 1% | -13% | 3% | 2% | 0% | ? | . | . | .
CC(C)CNC(=O)COC(=O)C1c2ccccc2Oc2ccccc21 | 1% | 4% | 14% | 0% | -2% | 2% | . | . | .
CC(C)[N+](C)(CCOC(=O)C1c2ccccc2Oc2ccccc21)C(C)C | 9% | -4% | 25% | 0% | -3% | 5.2µM* | -1% | -9% | 4.6µM*
COc1ccc(-c2nc(CN3CCN(c4ncnc5ccccc45)CC3)c(C)o2)c(OC)c1 | ? | ? | -9% | 0% | -4% | 8.2µM* | 2% | -13% | 8.2µM*
CC1(C)CC2CC(C)(CN2S(=O)(=O)c2ccc(C(=O)Nc3cccc(S(=O)(=O)N4CCOCC4)c3)cc2)C1 (configuration not stated) | -2% | 29% | -1% | 0% | 1% | 2.3µM* | -1% | -4% | 2.1µM*
CC1(C)CC2CC(C)(CN2S(=O)(=O)c2ccc(C(=O)Nc3cc(S(=O)(=O)N4CCOCC4)ccc3Cl)cc2)C1 (configuration not stated) | -4% | 14% | -6% | -1% | -4% | ? | . | . | .
Cc1csc2nc(-c3cccc(NC(=O)C(C)C)c3)cn12 | 17% | -5% | . | 4% | 8% | . | . | . | .

# Filtered by structure, the compounds so far containing a Cl atom
SMILES | A549 tox-1 | miR-21 reporter | Mito fusion yeast | Nrf2 activator | Glioma ERSR ind | Nrf2 block | FLuc counter 3 | A549 tox-2 | Nrf2 ARE inh
O=C(NCc1ccccc1Cl)C1CC(=O)N(Cc2ccccc2)C1 (configuration not stated) | 2% | -3% | -6% | 0% | 1% | 2% | . | . | .
COC(=O)c1c(C)oc2ccc(N(C(=O)Oc3ccccc3)S(=O)(=O)c3ccc(Cl)c([N+](=O)[O-])c3)cc12 | -16% | 1% | -1% | 0% | -3% | -12% | . | . | .
CC1(C)CC2CC(C)(CN2S(=O)(=O)c2ccc(C(=O)Nc3cc(S(=O)(=O)N4CCOCC4)ccc3Cl)cc2)C1 (configuration not stated) | -4% | 14% | -6% | -1% | -4% | ? | . | . | .
